By UniProt entry, the sequences of proteins in these tests, tags left out. Residues count along the entry.
UniProt P06276, 29-602: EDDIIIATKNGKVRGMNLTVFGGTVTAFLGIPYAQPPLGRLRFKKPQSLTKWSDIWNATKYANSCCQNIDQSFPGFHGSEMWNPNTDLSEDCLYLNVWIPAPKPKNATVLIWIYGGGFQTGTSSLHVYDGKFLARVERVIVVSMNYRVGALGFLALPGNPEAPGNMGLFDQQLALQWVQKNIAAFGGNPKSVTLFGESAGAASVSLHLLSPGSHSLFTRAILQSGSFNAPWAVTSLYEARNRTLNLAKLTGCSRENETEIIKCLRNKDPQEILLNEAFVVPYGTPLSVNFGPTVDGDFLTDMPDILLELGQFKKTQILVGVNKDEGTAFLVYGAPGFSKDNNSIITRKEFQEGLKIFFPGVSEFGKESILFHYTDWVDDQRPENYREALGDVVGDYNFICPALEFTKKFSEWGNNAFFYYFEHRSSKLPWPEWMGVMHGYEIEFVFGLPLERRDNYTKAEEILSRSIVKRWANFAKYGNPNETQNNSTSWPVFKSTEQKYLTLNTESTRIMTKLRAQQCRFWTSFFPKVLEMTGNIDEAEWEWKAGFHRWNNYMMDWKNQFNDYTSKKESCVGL
UniProt P22303, 32-614: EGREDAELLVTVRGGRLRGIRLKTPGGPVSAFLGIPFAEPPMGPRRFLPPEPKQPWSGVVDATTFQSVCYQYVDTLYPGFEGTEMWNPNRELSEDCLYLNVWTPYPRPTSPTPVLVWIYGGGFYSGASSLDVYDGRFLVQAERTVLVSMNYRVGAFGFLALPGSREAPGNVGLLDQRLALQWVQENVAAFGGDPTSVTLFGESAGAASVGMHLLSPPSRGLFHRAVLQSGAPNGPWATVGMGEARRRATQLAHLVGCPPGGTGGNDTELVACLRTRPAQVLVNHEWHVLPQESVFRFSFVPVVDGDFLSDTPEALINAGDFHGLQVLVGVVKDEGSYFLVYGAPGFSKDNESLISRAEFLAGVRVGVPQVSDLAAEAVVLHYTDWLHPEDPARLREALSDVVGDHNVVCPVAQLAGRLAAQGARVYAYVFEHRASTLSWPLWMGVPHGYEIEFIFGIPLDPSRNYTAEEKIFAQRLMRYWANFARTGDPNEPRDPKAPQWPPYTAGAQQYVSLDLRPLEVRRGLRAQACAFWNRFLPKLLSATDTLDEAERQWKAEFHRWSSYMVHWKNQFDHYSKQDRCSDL

In patent US9238626B2 (priority 2012, dated 2016):

Columns and labels:
human serum BChE = human serum BChE (Homo sapiens (Human), UniProt P06276); assay: BChE inhibition assay (Ellman); type: biochemical; conditions: read-out: IC50 hBChE
Method: BChE inhibitory activity determinations were carried out similarly by the method of Ellman et al., using 0.02 unit/mL of human serum BChE and 300 μM butyrylthiocholine, instead of AChE and acetylthiocholine, in a final volume of 300 μL.
Results are expressed as mean±S.E.M. of at least 4 experiments performed in duplicate. DTNB, acetylthiocholine, butyrylthiocholine, and enzymes were purchased from Sigma.

[1] = target: recombinant human AChE (hAChE) (Homo sapiens (Human), UniProt P22303); conditions: read-out: IC50 hAChE
Text: The results were plotted by placing the percentage of inhibition in function of the decimal log of the final inhibitor concentration.

Substance: huprine Y [(±)-Huprine Y•HCl, reference compound]
- IC50 (human serum BChE): 181 ± 15 nM
- IC50 [1]: 0.69 ± 0.03 nM
